Target: Phosphatidylinositol 3-kinase regulatory subunit alpha/4,5-bisphosphate 3-kinase catalytic subunit beta isoform (Homo sapiens, UniProt P42338)
Assay: Determination of PI3K Activity
Details: pH 7.4; 22 °C

Sequences of proteins named here, by UniProt entry; tags and fusion partners are left off. A change or cut given only in a name is not applied to a line headed by its entry.
UniProt P42338: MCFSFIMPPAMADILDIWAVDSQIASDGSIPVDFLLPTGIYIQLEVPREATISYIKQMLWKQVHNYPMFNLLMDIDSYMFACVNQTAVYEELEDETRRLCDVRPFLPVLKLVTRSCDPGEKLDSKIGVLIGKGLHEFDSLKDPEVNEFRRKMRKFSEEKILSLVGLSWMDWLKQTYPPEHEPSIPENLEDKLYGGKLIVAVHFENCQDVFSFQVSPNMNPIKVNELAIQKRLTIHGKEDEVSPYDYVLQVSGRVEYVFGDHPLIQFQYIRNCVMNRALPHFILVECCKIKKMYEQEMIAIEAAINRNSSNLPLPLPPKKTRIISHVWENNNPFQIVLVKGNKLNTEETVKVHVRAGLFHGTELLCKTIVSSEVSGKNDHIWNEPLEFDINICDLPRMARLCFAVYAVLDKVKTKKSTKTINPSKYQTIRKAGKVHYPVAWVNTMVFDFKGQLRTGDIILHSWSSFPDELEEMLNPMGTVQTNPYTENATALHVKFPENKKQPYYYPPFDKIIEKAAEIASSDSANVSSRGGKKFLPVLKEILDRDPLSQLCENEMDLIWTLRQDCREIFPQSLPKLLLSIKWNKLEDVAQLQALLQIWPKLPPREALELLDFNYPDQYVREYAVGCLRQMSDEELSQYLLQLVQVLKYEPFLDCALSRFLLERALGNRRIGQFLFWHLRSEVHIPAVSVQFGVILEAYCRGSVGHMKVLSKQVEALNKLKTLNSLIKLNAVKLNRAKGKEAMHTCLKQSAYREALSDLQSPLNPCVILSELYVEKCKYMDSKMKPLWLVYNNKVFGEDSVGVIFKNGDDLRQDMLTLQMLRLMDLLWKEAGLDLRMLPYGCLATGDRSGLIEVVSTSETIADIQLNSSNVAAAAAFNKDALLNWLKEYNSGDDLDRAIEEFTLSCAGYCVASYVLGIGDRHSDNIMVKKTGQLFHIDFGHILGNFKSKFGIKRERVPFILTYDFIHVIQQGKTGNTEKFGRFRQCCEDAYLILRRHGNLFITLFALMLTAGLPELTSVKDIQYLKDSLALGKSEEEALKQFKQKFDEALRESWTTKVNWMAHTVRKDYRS

Which IC50 does the source give for O=c1cc(N2CCOCC2)oc2c(-c3ccccc3)cccc12 here?
The IC50 was 0.858 µM.

Source: BindingDB's records for doi:10.1073/pnas.0606956103 (Targegen, 2006)
